{
  "source": "patent US4287190A",
  "about": "“Complexes of bivalent copper” (priority 1979, dated 1981)",
  "key": {"skin of the rats": {"tested_on": "skin of the rats", "assay": "Percutaneous absorption, TLC of urine extracts (Example 4, FIG. 1)", "format": "in vivo, Male Wistar rats", "procedure": "Male Wistar rats (average weight 250 g) were anaesthetised with diethyl ether and an area of c 20 sq. cm. was shaven high on their backs. The Cu[H Sal]2. C2 H5 OH composition prepared according to example 3 was then applied to each rat (c. 20 ml per 3 rats). The rats were then returned to their cages and after two days their urine was collected and compared with the urine of control, untreated, rats following the procedure below.\nUrine (5 ml) was acidified with 2 M H2 SO4 and shaken with ethyl acetate (2 ml). After centrifuging, the ethyl acetate layer was analysed by thin layer chromatography on silica gel (solvent: benzene, diethyl ether, glacial acetic acid and methanol in a ratio of 120:60:18:1 by volume) along with samples of salicylic acid, salicyluric acid, gentisic acid and ethyl salicylate.\nThe results are shown in FIG. 1 which is a diagrammatic representation of a chromatogram run under the conditions described above with solvent flow from origin line, represented by the points of application of the samples 1 to 9, in the direction of the arrow shown and wherein:\n1 and 9 represent the points of application of a sample of a mixture of salicyluric acid (a) and salicyclic acid (b) chromatographed for comparative purposes;\n2 and 8 represent the points of application of a sample of the urine extract of rats treated with the Cu[H Sal]2. C2 H5 OH composition; […]"}, "[1]": {"assay": "Stability of the Cu[H Sal]2. C2 H5 OH solution", "format": "physicochemical", "conditions": "c. 0.1 M solution in ethanol-glycerol with excess salicylic acid", "procedure": "Freshly prepared cupric hydroxide (1.0 g) was added to a solution of salicylic acid (7 g) in anhydrous ethanol (80 ml). The suspension was heated under reflux until all the cupric hydroxide had reacted. The resultant deep-green-coloured solution was filtered to remove any insoluble polymeric copper salicylate and glycerol (20 ml) was added to the filtrate."}},
  "data": [
    {"substance": "copper salicylate ethanolate [Cu[H Sal]2. C2 H5 OH]", "values": [
      {"measurement": "perfusion of the skin (percutaneous absorption)", "setting": "skin of the rats; topical composition of example 3, inferred from urine chromatogram", "value": "has perfused the skin of the rats"},
      {"measurement": "salicylic acid and gentisic acid in the urine of treated rats", "setting": "skin of the rats; topical, shaved back, urine collected after two days, TLC", "value": "presence of salicylic acid and gentisic acid in the urine"},
      {"measurement": "stability of the solution", "setting": "[1]", "value": "stable for a prolonged indefinite period"}
    ]}
  ]
}
